## Yeast mating assay 2: variants of the scFv Ab-95

Binding partner: SARS-CoV-2 spike HR2 peptide, sequence PDVDLGDISGINAS.

The variants keep the heavy chain, the linker and the frameworks of Ab-95 (scFv order VH, a 15-residue (Gly4Ser)3 linker, VL).
VH: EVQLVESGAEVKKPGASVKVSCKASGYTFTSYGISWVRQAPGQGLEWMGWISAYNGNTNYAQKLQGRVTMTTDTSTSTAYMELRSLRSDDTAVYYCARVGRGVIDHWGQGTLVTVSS
VL: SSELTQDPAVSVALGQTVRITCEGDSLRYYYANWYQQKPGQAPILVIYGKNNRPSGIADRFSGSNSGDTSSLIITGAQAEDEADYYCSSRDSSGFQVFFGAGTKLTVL

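Phage display of a naive human antibody library on the peptide gave the parent. Library AAYL52 holds single substitutions and randomly drawn double and triple substitutions in the CDRs. The scFvs were displayed on barcoded MATa yeast, the peptide on MATalpha yeast. Mating (16 h, 30 °C) was followed by selection of diploids and sequencing of their barcodes. Scores were corrected for input abundance and mapped to Kd with protein pairs of known affinity run in the same pool. The assay was run in three technical replicates.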

Sequences are complete VL domains. Scale: log10 of Kd in nM, estimated from mating counts; low values are strong binders. An entry "ND" has no value in the source: the pair was not observed among the diploids in that replicate. This suggests poor binding but is not conclusive. In this assay the parent's reference entry averaged 2.31; its copy inside this library read 2.25.

VL,"replicates, log10 nM",signal with controls
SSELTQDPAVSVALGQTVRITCEGDSLNYYYANWYQQKPGQAPILVIYGKNNFPSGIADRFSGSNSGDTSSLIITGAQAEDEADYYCGSRDSSGFQVFFGAGTKLTVL,ND ND ND,1 of 9 (3.01)
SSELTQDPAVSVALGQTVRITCEGDSLRYYSANWYQQKPGQAPILVIYGKNNRPSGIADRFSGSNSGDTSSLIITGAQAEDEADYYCDSRDSSYFQVFFGAGTKLTVL,4.80 ND ND,1 of 9 (2.96)
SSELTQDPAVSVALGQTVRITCEGMSLRYYYACWYQQKPGQAPILVIYGKNNRPSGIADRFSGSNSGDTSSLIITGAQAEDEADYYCYSRDSSGFQVFFGAGTKLTVL,3.47 3.95 4.58,4 of 9 (3.90)
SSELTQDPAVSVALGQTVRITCEGDSLRYYYANWYQQKPGQAPILVIYGKINRWSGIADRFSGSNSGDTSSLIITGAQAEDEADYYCSSRDPSGFQVFFGAGTKLTVL,ND 4.23 ND,2 of 9 (3.52)
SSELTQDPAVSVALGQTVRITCEGDSLRYYFAIWYQQKPGQAPILVIYGKNNRPSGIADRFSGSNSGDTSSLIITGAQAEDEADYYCSSRDSSGFQDFFGAGTKLTVL,5.50 4.36 ND,6 of 9 (3.64)
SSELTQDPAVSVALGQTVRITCEGDSLRTYYANWYQQKPGQAPILVIYGKTNRPSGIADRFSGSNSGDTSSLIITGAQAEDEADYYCSSRDSWGFQVFFGAGTKLTVL,4.91 ND 4.13,3 of 9 (3.10)
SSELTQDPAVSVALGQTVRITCEGDCLRYYYANWYQQKPGQAPILVIYGKNNRPSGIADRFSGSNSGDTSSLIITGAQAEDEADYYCSSRDSSGGQWFFGAGTKLTVL,4.26 3.43 ND,2 of 9 (3.94)
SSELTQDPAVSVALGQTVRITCETDSLRYYYANWYQQKPGQAPILVIYGKNNRPSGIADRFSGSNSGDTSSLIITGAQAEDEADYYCSSRDSSGPQVFFGAGTKLTVL,3.64 4.05 ND,1 of 9 (3.39)
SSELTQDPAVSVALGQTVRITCEGDSLRYIYANWYQQKPGQAPILVIYGKNNRPSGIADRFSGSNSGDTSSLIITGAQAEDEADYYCSRRDSSGFQVMFGAGTKLTVL,ND ND 3.30,0 of 9
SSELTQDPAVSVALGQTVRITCEGDSLSYYYANWYQQKPGQAPILVIYGKINRPSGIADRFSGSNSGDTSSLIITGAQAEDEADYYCISRDSSGFQVFFGAGTKLTVL,4.21 ND 4.59,5 of 9 (4.51)
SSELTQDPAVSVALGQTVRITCEGDSLRYYYAHWYQQKPGQAPILVIYFKNNRPSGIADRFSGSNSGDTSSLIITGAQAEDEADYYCESRDSSGFQVFFGAGTKLTVL,5.83 ND ND,3 of 9 (4.35)
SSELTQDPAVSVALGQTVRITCEGDSLRYYYAGWYQQKPGQAPILVIYGKNNRPSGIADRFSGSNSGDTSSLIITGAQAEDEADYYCNSRDSSGFRVFFGAGTKLTVL,ND ND ND,3 of 9 (3.97)
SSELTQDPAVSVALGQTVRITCEGDSLRYYFANWYQQKPGQAPILVIYGKNNRSSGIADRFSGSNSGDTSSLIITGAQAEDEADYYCSHRDSSGFQVFFGAGTKLTVL,4.12 3.88 ND,4 of 9 (3.40)
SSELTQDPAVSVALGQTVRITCEGDSLKYYYANWYQQKPGQAPILVIYGKGNWPSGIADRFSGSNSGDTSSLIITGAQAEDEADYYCSSRDSSGFQVFFGAGTKLTVL,ND ND ND,2 of 9 (4.30)
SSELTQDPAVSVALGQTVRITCEGESARYYHANWYQQKPGQAPILVIYGKNNRPSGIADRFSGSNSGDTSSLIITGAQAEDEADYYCSSRDSSGFQVFFGAGTKLTVL,3.32 2.76 3.27,2 of 9 (3.05)
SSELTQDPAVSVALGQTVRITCEGDSLRYYYYNWYQQKPGQAPILVIYGKNNRPSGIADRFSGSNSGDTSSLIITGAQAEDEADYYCSSRDSSRFQVMFGAGTKLTVL,4.60 ND ND,3 of 9 (4.29)
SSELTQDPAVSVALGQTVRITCSGDSLRYQYANWYQQKPGQAPILVIYGKNNRPSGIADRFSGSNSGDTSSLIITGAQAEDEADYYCSSRDSSGFHVFFGAGTKLTVL,0.67 0.64 -0.07,3 of 9 (4.40)
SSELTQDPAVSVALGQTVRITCEGDSLRYNYHNWYQQKPGQAPILVIYGKNNRPSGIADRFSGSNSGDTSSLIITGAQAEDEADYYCSSRDSVGFQVFFGAGTKLTVL,5.68 4.68 ND,6 of 9 (4.30)
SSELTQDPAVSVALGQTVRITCEGDSLYYYYANWYQQKPGQAPILVIYGLNNRPSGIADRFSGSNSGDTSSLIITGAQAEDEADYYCSSRQSSGFQVFFGAGTKLTVL,ND 3.29 3.99,0 of 9
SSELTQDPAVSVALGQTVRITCEGDSLRYYYANWYQQKPGQAPILVIYGKNTRPSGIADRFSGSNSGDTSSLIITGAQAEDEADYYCSCYDSSGFQVFFGAGTKLTVL,2.06 3.58 ND,1 of 9 (4.09)

As a blank, each scFv also met three strains without target: over library AAYL52, 28% of these pairings were detected, typically at 3.91 and seldom below 2.90. For each scFv, signals with the empty controls are counted beside the result, with their mean in brackets.

Values reported by Engelhart et al. 2022, doi:10.1038/s41597-022-01779-4 (FLAb copy).